The source of these data is patent EP2424865B1 (Boehringer Ingelheim International GmbH, priority 2009, dated 2010).

Each structure is given as a SMILES string.

This data set can be described thus: Slurry experiment on the stability of the crystal form (suspension in water, x-ray powder diffraction). The class given is physicochemical. The note with it: for polymorphic change (x-ray powder diffraction of the filtration residue): suspended in water for up to seven days.

Take `C[C@@H](c1ccc(-c2ccn(C)c(=O)c2)cc1)N1CC[C@](CC(C)(C)O)(c2ccccc2)OC1=O` [anhydrous form of Example 48, (S)-6-(2-hydroxy-2-methylpropyl)-3-((S)-1-(4-(1-methyl-2-oxo-1,2-dihydropyridin-4-yl)phenyl)ethyl)-6-phenyl-1,3-oxazinan-2-one]: the “persistence of the anhydrous state” value (during the measurement by XRPD (30 minutes)) is “did not remain in the anhydrous state”. As for `C[C@@H](c1ccc(-c2ccn(C)c(=O)c2)cc1)N1CC[C@](CC(C)(C)O)(c2ccccc2)OC1=O` [monohydrate of Example 48, (S)-6-(2-hydroxy-2-methylpropyl)-3-((S)-1-(4-(1-methyl-2-oxo-1,2-dihydropyridin-4-yl)phenyl)ethyl)-6-phenyl-1,3-oxazinan-2-one], the “polymorphic change (x-ray powder diffraction of the filtration residue)” value was “No polymorphic change”.

With `C[C@@H](c1ccc(-c2ccn(C3CC3)c(=O)c2)cc1)N1CC[C@](CC(C)(C)O)(c2ccccc2)OC1=O` [monohydrate of Example 75, 3-{(S)-1-[4-(1-Cyclopropyl-2-oxo-1,2-dihydro-pyridin-4-yl)-phenyl]-ethyl}-(S)-6-(2-hydroxy-2-methyl-propyl)-6-phenyl-[1,3]oxazinan-2-one], the “polymorphic change (x-ray powder diffraction of the filtration residue)” value is “No polymorphic change”.
